Reference: patent publication US8211885B2, “Cyclic indole-3-carboxamides, their preparation and their use as pharmaceuticals” (Sanofi-Aventis, priority 2008, dated 2012)

Amino acid sequences for entries named in this document (tags omitted). Residues count along the entry.
UniProt P00797, 67-406 limits assumed: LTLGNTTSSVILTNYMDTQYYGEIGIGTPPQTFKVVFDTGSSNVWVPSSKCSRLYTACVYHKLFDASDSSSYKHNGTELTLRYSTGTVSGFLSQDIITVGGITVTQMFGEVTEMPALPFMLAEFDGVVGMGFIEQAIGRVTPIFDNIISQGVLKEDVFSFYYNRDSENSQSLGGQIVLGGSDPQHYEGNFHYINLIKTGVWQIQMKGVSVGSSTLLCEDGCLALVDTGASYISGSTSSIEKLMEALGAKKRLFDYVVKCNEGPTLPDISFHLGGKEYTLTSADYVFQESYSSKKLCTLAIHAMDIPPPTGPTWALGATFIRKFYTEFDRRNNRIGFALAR

Molecular target: Recombinant human renin (Homo sapiens, UniProt P00797)

Compound	IC50
Cc1ccc(F)cc1Oc1c(C(=O)N2CCNCC2)c2ccc(O)cc2n1-c1ccc(F)cc1	18 nM
O=C(c1c(Oc2ccccc2)n(-c2ccccc2)c2cc(Cl)ccc12)N1CCNCC1	540 nM
COCCCOc1cccc(-n2c(Oc3ccccc3)c(C(=O)N3CCNCC3)c3ccccc32)c1	760 nM
Cc1c(F)cccc1Cc1cc2c(cc1O)c(C(=O)N1CCNCC1)c(Cc1cccc(F)c1C)n2-c1ccccc1	430 nM
Cc1c(F)cccc1Cc1c(C(=O)N2CCNCC2)c2ccccc2n1-c1ccc(O)nc1	9400 nM
